Measurements: patent publication US20120231013A1 (Amgen, published 2012)

Target: T1, recombinant human TIMP-3 (human, UniProt P35625 24-211)
T1 sequence (looked up): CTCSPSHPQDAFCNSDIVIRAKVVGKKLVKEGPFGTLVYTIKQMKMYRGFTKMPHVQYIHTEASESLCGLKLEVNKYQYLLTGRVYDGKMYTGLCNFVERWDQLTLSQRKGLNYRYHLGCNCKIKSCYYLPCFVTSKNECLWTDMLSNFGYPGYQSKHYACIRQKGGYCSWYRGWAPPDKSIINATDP
Experiment: cell-based or functional assay

B1: LRP-1 peptide LA3-4 (peptide)
chain: CQPGEFACANSRCIQERWKCDGDNDCLDNSDEAPALCHQHTCPSDRFKCENNRCIPNRWLCDGDNDCGNSEDESNAT
notes: Tags implied (Ni-NTA, anti-HA detection), not described
% of the inhibitory activity of TIMP-3 + peptide compared to TIMP-3 alone, 80 nM: 102%

B4: LRP-1 peptide LA17 (peptide)
chain: CGPSSFSCPGTHVCVPERWLCDGDKDCADGADESIAAGCLYNST
notes: as for B1
% of the inhibitory activity of TIMP-3 + peptide compared to TIMP-3 alone, 16 nM: 103%

B7: LRP-1 peptide LA3-5 (peptide)
chain: CQPGEFACANSRCIQERWKCDGDNDCLDNSDEAPALCHQHTCPSDRFKCENNRCIPNRWLCDGDNDCGNSEDESNATCSARTCPPNQFSCASGRCIPISWTCDLDDDCGDRSDESASCAYPT
notes: as for B1
% of the inhibitory activity of TIMP-3 + peptide compared to TIMP-3 alone, 400 nM: 103%

B8: LRP-1 peptide LA4-5 (peptide)
chain: CPSDRFKCENNRCIPNRWLCDGDNDCGNSEDESNATCSARTCPPNQFSCASGRCIPISWTCDLDDDCGDRSDESASCAYPT
% of the inhibitory activity of TIMP-3 + peptide compared to TIMP-3 alone, 16 nM: 102% | % of the inhibitory activity of TIMP-3 + peptide compared to TIMP-3 alone, 400 nM: 102%

B9: LRP-1 peptide LA3 (peptide)
chain: not shown
% of the inhibitory activity of TIMP-3 + peptide compared to TIMP-3 alone, 16 nM: 103%

Binder: CLPSQFKCTNTNRCIPGIFRCNGQDNCGDGEDERDCPEVT [LRP-1 peptide LA23]
% of the inhibitory activity of TIMP-3 + peptide compared to TIMP-3 alone, 400 nM: 106%

Further lines, results first:

% of the inhibitory activity of TIMP-3 + peptide compared to TIMP-3 alone, 2000 nM: 103%
B2: LRP-1 peptide LA24-26 (peptide)
chain: not shown
notes: The end 3574 is inferred from the end of LA26

% of the inhibitory activity of TIMP-3 + peptide compared to TIMP-3 alone, 400 nM: 103%
B3: LRP-1 peptide LA24 (peptide)
chain: not shown
notes: as for B1

% of the inhibitory activity of TIMP-3 + peptide compared to TIMP-3 alone, 2000 nM: 103%
B5: LRP-1 peptide LA26-28 (peptide)
chain: CEPYQFRCKNNRCVPGRWQCDYDNDCGDNSDEESCTPRPCSESEFSCANGRCIAGRWKCDGDHDCADGSDEKDCTPRCDMDQFQCKSGHCIPLRWRCDADADCMDGSDEEACGTGVRT

% of the inhibitory activity of TIMP-3 + peptide compared to TIMP-3 alone, 16 nM: 106% | % of the inhibitory activity of TIMP-3 + peptide compared to TIMP-3 alone, 80 nM: 103%
B6: LRP-1 peptide LA23-24 (peptide)
chain: not shown
notes: as for B1

Each block holds one binder with its values, some of them ahead of it.
